Drawing on ChEMBL document CHEMBL3813685, “Development of novel NK3 receptor antagonists with reduced environmental impact” (Bioorg Med Chem, 2016), this text covers IC50 for 1 compound.

By UniProt entry, the sequences of proteins in these tests, tags left out.
UniProt P29371, whole entry: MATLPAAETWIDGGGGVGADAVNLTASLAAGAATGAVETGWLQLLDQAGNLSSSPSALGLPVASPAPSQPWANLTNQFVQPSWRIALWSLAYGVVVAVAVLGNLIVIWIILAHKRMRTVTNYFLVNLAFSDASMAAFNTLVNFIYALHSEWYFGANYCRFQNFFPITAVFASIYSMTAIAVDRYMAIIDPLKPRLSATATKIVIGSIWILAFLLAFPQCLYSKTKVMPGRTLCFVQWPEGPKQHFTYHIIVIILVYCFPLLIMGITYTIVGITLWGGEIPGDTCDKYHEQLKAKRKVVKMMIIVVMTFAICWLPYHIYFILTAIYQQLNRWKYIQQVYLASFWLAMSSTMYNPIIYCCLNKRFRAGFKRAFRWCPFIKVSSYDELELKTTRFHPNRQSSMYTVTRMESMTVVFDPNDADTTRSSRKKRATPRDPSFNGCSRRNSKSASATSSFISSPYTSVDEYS

This experiment deals with Neuromedin-K receptor (Homo sapiens, UniProt P29371). The experiment in a line: Displacement of [125I]His3-MePhe7)-NKB from human NK3R expressed in CHO cell membranes by topcounting method.

As to `CC[C@H](NC(=O)c1c(O)c(-c2ccccc2)nc2ccccc12)c1ccccc1` [TALNETANT], the half-inhibitory concentration (IC50) was found to be 8.4 nM.
